According to patent US20240174727A1, “LONG-ACTING NATRIURETIC PEPTIDES AND USES THEREOF” (Eli Lilly and Company, priority 2022, published 2024):

Molecular target: T1, rat NPRA (Rattus norvegicus, UniProt P18910)
T1 construct: Full-Length cDNA Cloning and Generation of Cell Lines Overexpressing Natriuretic Peptide Receptors (NPRs); expressed in transfected cells; host or cells: Jump-in T-Rex HEK293 cells, pJTI R4 CMV-TO MCS pA vector, tetracycline induction
T1 sequence (P18910 29-1057): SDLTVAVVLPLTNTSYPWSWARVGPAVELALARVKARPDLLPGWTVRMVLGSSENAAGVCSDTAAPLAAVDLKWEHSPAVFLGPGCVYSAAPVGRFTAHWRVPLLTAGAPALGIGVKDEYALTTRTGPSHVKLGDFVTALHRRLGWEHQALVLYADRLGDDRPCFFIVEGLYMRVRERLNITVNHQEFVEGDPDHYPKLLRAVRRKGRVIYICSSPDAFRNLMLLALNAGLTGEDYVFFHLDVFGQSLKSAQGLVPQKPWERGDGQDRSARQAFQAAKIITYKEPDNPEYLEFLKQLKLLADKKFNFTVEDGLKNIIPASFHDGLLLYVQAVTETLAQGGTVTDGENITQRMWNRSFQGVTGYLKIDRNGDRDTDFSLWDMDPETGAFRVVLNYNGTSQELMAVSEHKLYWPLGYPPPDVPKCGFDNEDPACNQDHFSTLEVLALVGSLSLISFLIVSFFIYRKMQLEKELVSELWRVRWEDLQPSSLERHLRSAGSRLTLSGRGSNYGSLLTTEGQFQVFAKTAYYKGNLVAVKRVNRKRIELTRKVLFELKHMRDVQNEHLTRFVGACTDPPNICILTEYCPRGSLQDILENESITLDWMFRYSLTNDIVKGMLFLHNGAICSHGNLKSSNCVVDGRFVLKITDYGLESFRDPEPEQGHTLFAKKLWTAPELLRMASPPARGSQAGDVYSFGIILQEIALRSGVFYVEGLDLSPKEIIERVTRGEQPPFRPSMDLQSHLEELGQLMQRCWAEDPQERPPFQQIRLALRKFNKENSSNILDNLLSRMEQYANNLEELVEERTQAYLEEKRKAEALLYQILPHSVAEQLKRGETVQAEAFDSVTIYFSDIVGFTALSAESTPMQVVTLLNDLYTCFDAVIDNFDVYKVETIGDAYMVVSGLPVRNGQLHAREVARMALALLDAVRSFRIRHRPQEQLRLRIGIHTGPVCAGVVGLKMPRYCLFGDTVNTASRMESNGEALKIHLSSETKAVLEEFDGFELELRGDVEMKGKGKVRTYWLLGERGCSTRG
Assay: Rat NPRA cGMP activity assay (HTRF) in HEK293 cells overexpressing NPRA
Type: cell-based
Procedure, shortened: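 cGMP measured by HTRF and scaled between buffer (minimum) and 100 nM amidated rat ANP (maximum). Polypeptides in 10-fold steps from 10 μM to 1 pM, 0.5% DMSO, 0.5 mM IBMX, 40 min at room temperature, on induced NPRA-overexpressing HEK293 cells.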

[1] = cGMP Assay (EC50, pM) w/BSA rNPRA, assay buffer with 0.1% BSA
[2] = cGMP Assay (EC50, pM) w/Casein rNPRA, assay buffer with 0.1% casein

Compound | EC50 [1] | EC50 [2]
CC[C@H](C)[C@@H]1NC(=O)[C@H](CCCNC(=N)N)NC(=O)[C@H](CC(=O)O)NC(=O)[C@H]([C@@H](C)CC)NC(=O)[C@H](CCCNC(=N)N)NC(=O)CNC(=O)CNC(=O)[C@H](Cc2ccccc2)NC(=O)[C@@H](NC(=O)[C@H](CO)NC(=O)[C@H](CO)NC(=O)[C@H](CCCNC(=N)N)NC(=O)[C@H](CCCNC(=N)N)NC(=O)[C@H](Cc2ccncc2)NC(=O)[C@H](CO)NC(=O)CNC(=O)[C@H](CCCCN)NC(=O)[C@H](CCC(=O)O)NC(=O)[C@H](CCCCN)NC(=O)[C@H](CCC(=O)O)NC(=O)[C@H](CCCCN)NC(=O)[C@H](CCC(=O)O)NC(=O)CC[C@H](NC(=O)CCCCCCCCCCCCCCCCCCC(=O)O)C(=O)O)CSCSC[C@@H](C(=O)N2CCC[C@H]2C(=O)N[C@@H](CO)C(=O)N[C@@H](Cc2ccccc2)C(=O)N[C@@H](CCCNC(=N)N)C(=O)N[C@@H](Cc2c[nH]cn2)C(=O)NCC(=O)NCC(=O)N[C@@H](CO)C(=O)N[C@@H](CO)C(=O)NCC(=O)N[C@@H](C)C(=O)N2CCC[C@H]2C(=O)N2CCC[C@H]2C(=O)N2CCC[C@H]2C(=O)N[C@@H](CO)C(N)=O)NC(=O)CNC(=O)[C@H](CC(C)C)NC(=O)CNC(=O)[C@H](CO)NC(=O)[C@H](CCC(N)=O)NC(=O)[C@H](Cc2c[nH]cn2)NC(=O)CNC1=O [Example 66] | 1.75e+06 pM | 9770 pM
CC[C@H](C)[C@@H]1NC(=O)[C@H](CCCNC(=N)N)NC(=O)[C@H](CC(=O)O)NC(=O)[C@H]([C@@H](C)CC)NC(=O)[C@H](CCCNC(=N)N)NC(=O)[C@H](CCCCN)NC(=O)CNC(=O)[C@H](Cc2ccccc2)NC(=O)[C@@H](NC(=O)[C@H](CO)NC(=O)[C@H](CO)NC(=O)[C@H](CCCNC(=N)N)NC(=O)CCNC(=O)[C@H](CCCCN)NC(=O)[C@H](CCC(=O)O)NC(=O)CCOCCOCCOCCOCCOCCOCCOCCOCCOCCOCCOCCOCCOCCOCCOCCOCCOCCOCCOCCOCCOCCOCCOCCOCCNC(=O)CNC(=O)[C@H](CCCCN)NC(=O)[C@H](CCC(=O)O)NC(=O)[C@H](CCCCN)NC(=O)[C@H](CCC(=O)O)NC(=O)[C@H](CCCCN)NC(=O)[C@H](CCC(=O)O)NC(=O)CC[C@H](NC(=O)CCCCCCCCCCCCCCCCCCC(=O)O)C(=O)O)CSCSC[C@@H](C(=O)N2CCC[C@H]2C(=O)N[C@@H](CO)C(=O)N[C@@H](Cc2ccccc2)C(=O)N[C@@H](CCCNC(=N)N)C(=O)N[C@@H](Cc2c[nH]cn2)C(=O)NCC(=O)NCC(=O)N2CCC[C@H]2C(N)=O)NC(=O)CNC(=O)[C@H](CC(C)C)NC(=O)CNC(=O)[C@H](CO)NC(=O)[C@H](Cc2ccc(O)cc2)NC(=O)[C@H](Cc2c[nH]cn2)NC(=O)CNC1=O [Example 129] | 59400 pM | 2280 pM
